Biological target: Coagulation factor X (Homo sapiens, UniProt P00742)
Experiment: Inhibitory constant against human coagulation factor Xa (fXa)

Sequences of proteins named here, by UniProt entry; tags and fusion partners are left off. Residues count along the entry.
UniProt P00742, 41-179 limits assumed: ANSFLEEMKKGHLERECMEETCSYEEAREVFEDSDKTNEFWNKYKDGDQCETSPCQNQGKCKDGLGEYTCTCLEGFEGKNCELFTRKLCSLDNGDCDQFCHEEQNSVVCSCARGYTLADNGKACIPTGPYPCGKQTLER
UniProt P00742, 235-488 limits assumed: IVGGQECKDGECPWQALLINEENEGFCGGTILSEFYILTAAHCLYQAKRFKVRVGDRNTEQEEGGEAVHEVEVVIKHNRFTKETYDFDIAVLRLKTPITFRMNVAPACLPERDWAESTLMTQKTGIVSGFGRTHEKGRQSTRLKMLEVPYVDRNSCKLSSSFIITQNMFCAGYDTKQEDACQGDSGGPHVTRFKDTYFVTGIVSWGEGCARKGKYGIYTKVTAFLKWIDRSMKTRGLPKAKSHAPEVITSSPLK

Ki: 2.4 µM
Compound: Cc1c(F)c(Oc2cccc(C(=N)N)c2)nc(Oc2cc(N(C)C)ccc2C(=O)O)c1F
